The record followed here is patent publication US7320863B2 (Albert Einstein College of Medicine of Yeshiva University, priority 1996, dated 2008).

The target of the test is T1, rat sodium/iodide symporter (Rattus norvegicus, UniProt Q63008).
T1 sequence (Q63008 1-618): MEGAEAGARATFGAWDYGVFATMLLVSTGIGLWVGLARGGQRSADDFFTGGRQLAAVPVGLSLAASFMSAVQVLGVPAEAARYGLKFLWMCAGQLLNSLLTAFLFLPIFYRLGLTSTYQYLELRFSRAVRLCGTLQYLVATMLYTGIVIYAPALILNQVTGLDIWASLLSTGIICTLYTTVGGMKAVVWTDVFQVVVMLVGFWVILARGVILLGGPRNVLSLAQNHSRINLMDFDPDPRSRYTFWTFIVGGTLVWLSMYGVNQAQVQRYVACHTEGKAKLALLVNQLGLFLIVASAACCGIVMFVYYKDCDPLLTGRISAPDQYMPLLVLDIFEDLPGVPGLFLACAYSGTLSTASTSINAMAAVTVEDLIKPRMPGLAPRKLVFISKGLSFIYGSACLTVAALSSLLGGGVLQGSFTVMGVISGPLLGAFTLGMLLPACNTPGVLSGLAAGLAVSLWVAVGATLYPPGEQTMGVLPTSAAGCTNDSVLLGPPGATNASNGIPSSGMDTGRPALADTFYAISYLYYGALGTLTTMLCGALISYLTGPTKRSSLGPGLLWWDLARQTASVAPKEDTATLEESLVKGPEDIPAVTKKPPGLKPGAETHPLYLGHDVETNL
The following applies: approximately 90 min saturation point, 50 μM iodide in transport solution, 60 h after injection.

As for `I` [iodide], the “iodide accumulation at saturation point” value was ~800 pmol of iodide/oocyte.
